{"sequences": {"note": "Sequences of proteins named here, by UniProt entry; tags and fusion partners are left off. Residues count along the entry.", "UniProt Q9BXF3, 424-538": "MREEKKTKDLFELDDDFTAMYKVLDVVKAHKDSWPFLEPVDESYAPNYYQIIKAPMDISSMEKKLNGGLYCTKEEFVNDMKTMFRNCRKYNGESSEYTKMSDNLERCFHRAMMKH"}, "source": "paper doi:10.1101/2024.12.09.627393", "about": "(bioRxiv, 2024)", "target": "T1, CECR2 bromodomain (Homo sapiens, UniProt Q9BXF3)", "T1 construct": "A construct encoding amino acids 424–538 of the human CECR2-BRD-containing protein; GST (N, cleaved yes); made in house; host or cells: E. coli BL21(DE3) pLysS", "test": "Isothermal titration calorimetry, wild-type CECR2-BRD", "conditions": "ITC, 5°C, 20 mM sodium phosphate pH 7.0, 150 mM NaCl, 1 mM TCEP, mean ± SD of triplicate, non-binding runs in duplicate", "data": [{"substance": "TYETFKSIMKK-NH2 [RelAK310 (305–315), unmodified RelA peptide residues 305–315, reference compound]", "values": [{"measurement": "KD", "value": "No Binding"}]}]}
